These are literature values, as cited in PMC5807063 (Science (New York, N.Y.), 2017).

As usually defined, the Ki is a measure of affinity in units of concentration, obtained from inhibition or displacement.

This data set deals with T1, purified HNE (human neutrophil elastase) (Homo sapiens, UniProt P08246).
T1 sequence (P08246 30-267): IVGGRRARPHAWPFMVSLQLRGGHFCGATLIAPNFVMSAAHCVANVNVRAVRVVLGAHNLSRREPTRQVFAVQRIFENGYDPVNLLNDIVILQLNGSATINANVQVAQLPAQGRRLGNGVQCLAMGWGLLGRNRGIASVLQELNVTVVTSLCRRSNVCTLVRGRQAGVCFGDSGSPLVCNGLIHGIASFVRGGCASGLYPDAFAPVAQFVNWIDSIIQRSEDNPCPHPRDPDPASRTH
As to conditions: read-out: reported Ki; cited from earlier work.

Regarding BAY 85-8501 [compound 54], the inhibition constant (Ki) was 0.08 nM.
